# Values of other authors in US20250161269A1 (Celmatix Inc., priority 2022, published 2025).
# The chains behind the UniProt entries cited, without tags or fusion partners. Residues count along the entry.
# UniProt P28335, 33-458: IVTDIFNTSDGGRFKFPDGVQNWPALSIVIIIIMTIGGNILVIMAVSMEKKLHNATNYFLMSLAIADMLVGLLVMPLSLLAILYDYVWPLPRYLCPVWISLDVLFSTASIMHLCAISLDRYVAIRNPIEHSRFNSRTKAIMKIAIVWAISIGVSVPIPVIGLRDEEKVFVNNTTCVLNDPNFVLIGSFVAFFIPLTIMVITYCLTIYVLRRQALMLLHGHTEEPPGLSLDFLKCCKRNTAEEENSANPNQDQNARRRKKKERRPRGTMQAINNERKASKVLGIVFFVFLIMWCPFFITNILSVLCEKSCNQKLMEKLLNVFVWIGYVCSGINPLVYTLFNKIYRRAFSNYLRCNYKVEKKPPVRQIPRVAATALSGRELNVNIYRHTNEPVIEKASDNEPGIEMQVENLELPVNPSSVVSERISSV
# Biological target: serotonin 5-HT2C receptor (Homo sapiens, UniProt P28335)
# Details: antagonist; cited from earlier work
smiles,measurement,value
COc1ccc2cccc(CCNC(C)=O)c2c1 [Agomelatine],Ki,631 nM
